scFv variants of Ab-14 (light chain) against a SARS-CoV-2 spike peptide

From the AlphaSeq antibody data of Engelhart et al. 2022 (doi:10.1038/s41597-022-01779-4), copy in the FLAb collection.

Target peptide (SARS-CoV-2 spike, HR2 region): PDVDLGDISGINAS

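The starting antibody came from a phage panning campaign against this peptide. AAYL50 was designed without a model: most single CDR substitutions and a random sample of double and triple ones. The scFvs were displayed on barcoded MATa yeast, the peptide on MATalpha yeast. Pairs that bind mate more often; barcode pairs of the diploids are counted by sequencing. Each replicate has its own calibration line, from reference interactions of the BCL2 family. Mating was done three times.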

Parent: Ab-14, a human scFv built as VH, a 15-residue (Gly4Ser)3 linker, VL. Only the CDRs of the light chain vary.
VH: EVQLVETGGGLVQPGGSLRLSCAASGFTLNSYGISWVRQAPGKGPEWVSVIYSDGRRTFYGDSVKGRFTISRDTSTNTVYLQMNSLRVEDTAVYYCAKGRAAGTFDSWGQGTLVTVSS
VL: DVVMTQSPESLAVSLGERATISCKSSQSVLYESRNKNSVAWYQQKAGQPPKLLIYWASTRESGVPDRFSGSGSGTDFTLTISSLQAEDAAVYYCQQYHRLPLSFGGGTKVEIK

Sequences are complete VL domains. All variants listed here change E32 of the VL, counted from its first residue. Values are apparent Kd, the geometric mean of the replicates that gave a signal; lower means stronger binding. A pair that was not seen in any replicate is written "no signal"; this usually means weak binding, but a binder can also be missed. Three control strains display no target. For library AAYL50, 18% of the pairings with them gave a signal, with a median of 15 µM and one signal in twenty below 970 nM, so weak values seen in few replicates may be background. For reference, the parent read 4.4 nM as the reference entry and 48 nM as a member of this library.

The variant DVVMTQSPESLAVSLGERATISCKSSQSVLYVSRNKNSVAWYQQKAGQPPKLLIYWASTRESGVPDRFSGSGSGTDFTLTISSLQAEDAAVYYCAIYHRLPLSFGGGTKVEIK gave no signal (0 of 3 replicates).
The variant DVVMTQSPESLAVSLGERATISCMSSNSVLYLSRNKNSVAWYQQKAGQPPKLLIYWASTRESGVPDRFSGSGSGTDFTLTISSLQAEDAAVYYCQQYHRLPLSFGGGTKVEIK gave 13 µM (3 of 3 replicates).
The variant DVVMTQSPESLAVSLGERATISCKSSQSVLQYSRNKNSVAWYQQKAGQPPKLLIYWASTRESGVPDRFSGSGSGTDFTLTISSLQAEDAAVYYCQQYHELPLSFGGGTKVEIK gave 1.3 µM (2 of 3 replicates).
The variant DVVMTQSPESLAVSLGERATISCKSSQSVLYVWRNKNSVAWYQQKAGQPPKLLIYWASTRWSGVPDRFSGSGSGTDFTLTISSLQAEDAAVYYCQQYHRLPLSFGGGTKVEIK gave 3.5 µM (1 of 3 replicates).
The variant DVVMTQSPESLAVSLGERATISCKSSQSVLYHSRNKNSVAWYQQKAGQPPKLLIYWASTRESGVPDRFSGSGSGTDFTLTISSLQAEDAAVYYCIQYHRLHLSFGGGTKVEIK gave no signal (0 of 3 replicates).
The variant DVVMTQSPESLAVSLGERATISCKSSQSVLYLSRNENSVAWYQQKAGQPPKLLIYWASTRESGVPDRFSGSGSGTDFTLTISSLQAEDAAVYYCQQYHRLPLGFGGGTKVEIK gave 2.2 µM (2 of 3 replicates).
The variant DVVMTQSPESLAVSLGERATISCKSSQSVLYASRNKNFVAWYQQKAGQPPKLLIYWASTRESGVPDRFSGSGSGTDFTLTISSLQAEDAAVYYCQQYHRCPLSFGGGTKVEIK gave 3.5 µM (2 of 3 replicates).
The variant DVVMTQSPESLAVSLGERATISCKSSQSVLYSSRNKNSVAWYQQKAGQPPKLLIYWASTRESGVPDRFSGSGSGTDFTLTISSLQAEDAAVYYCQVYHRLPRSFGGGTKVEIK gave 56 µM (2 of 3 replicates).
The variant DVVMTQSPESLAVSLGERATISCKSSESVLYASRNKNSVAWYQQKAGQPPKLLIYWASTRESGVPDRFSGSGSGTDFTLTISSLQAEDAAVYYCQQYHRLPLSFGGGTKVEIK gave 2.2 nM (3 of 3 replicates).
The variant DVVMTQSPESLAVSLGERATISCKSSQSCLYKSRNKNSVAWYQQKAGQPPKLLIYWASTRESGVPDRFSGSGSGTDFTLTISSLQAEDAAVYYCQQYHRLPLFFGGGTKVEIK gave no signal (0 of 3 replicates).
The variant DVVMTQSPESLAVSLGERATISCKSSQSVWYDSRNKNSVAWYQQKAGQPPKLLIYWASTREKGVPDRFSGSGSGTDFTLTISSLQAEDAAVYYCQQYHRLPLSFGGGTKVEIK gave 24 nM (3 of 3 replicates).
The variant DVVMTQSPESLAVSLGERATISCKSSQSVLYQSRNKNSVAWYQQKAGQPPKLLIYWASVRESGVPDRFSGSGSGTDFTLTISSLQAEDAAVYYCQQYYRLPLSFGGGTKVEIK gave 340 nM (3 of 3 replicates).
The variant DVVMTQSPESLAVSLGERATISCKSSQSVLYKSRNKNSVAWYQQKAGQPPKLLIYWASMRESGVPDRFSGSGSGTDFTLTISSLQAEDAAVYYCQQTHRLPLSFGGGTKVEIK gave 69 µM (2 of 3 replicates).
The variant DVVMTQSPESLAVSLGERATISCKSSQSVLYCSRVKNSVAWYQQKAGQPPKLLIYWASTRESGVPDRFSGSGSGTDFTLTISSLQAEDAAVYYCQMYHRLPLSFGGGTKVEIK gave no signal (0 of 3 replicates).
The variant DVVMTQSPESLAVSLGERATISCKSSQSVLYSSRNKNSVAWYQQKAGQPPKLLIYWASGRESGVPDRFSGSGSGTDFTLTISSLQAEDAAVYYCQQYHRLPDSFGGGTKVEIK gave 16 µM (1 of 3 replicates).
The variant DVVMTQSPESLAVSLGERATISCGSSQSVLYYSRNKNSDAWYQQKAGQPPKLLIYWASTRESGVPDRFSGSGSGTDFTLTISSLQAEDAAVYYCQQYHRLPLSFGGGTKVEIK gave 250 nM (3 of 3 replicates).
The variant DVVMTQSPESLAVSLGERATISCKSSQSVLYHSRNKNSVAWYQQKAGQPPKLLIYWASTNESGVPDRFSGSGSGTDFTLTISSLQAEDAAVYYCQAYHRLPLSFGGGTKVEIK gave no signal (0 of 3 replicates).
The variant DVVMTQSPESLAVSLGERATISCKSSQSVLYASRNKNSVAWYQQKAGQPPKLLIYWASERESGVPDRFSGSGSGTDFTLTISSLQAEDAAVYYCQQYPRLPLSFGGGTKVEIK gave 45 nM (3 of 3 replicates).

Repeated from above, the 2 best binders with a signal in all replicates:

{"VL": "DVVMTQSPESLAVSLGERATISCKSSESVLYASRNKNSVAWYQQKAGQPPKLLIYWASTRESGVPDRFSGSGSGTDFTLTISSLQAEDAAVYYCQQYHRLPLSFGGGTKVEIK", "apparent Kd": "2.2 nM", "replicates with signal": "3 of 3"}
{"VL": "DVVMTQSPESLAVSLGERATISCKSSQSVWYDSRNKNSVAWYQQKAGQPPKLLIYWASTREKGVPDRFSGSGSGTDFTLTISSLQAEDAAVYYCQQYHRLPLSFGGGTKVEIK", "apparent Kd": "24 nM", "replicates with signal": "3 of 3"}